Measurements published in patent US7276248B2, “Conjugate having a cleavable linkage for use in a liposome” (ALZA Corporation, priority 1999, dated 2007).

Test system: M109 cells, a mouse lung carcinoma line
Assay: In vitro cytotoxicity / growth rate of M109 cells, methylene blue staining, 72 hour continuous exposure
Conditions: cysteine 150, 500, 1000 μM

SMILES: CO[C@@]12[C@H](COC(N)=O)C3=C(C(=O)C(C)=C(N)C3=O)N1C[C@@H]1N[C@@H]12 [free MMC, mitomycin C]
- effect of cysteine on cytotoxicity / cell growth rate: no effect
